We go through ten compounds from patent US12478617B2, “Lipidated peptide inhibitors of interleukin-23 receptor” (JANSSEN BIOTECH, INC., priority 2021, dated 2025).

The assay has as its target T1, IL-23R (Homo sapiens, UniProt Q5VWK5).
T1 construct: HEK293 cells containing IL-23R, IL-12RP31 and a firefly luciferase reporter gene driven by a STAT-inducible promoter (Promega); host or cells: HEK293
T1 sequence (Q5VWK5 24-629): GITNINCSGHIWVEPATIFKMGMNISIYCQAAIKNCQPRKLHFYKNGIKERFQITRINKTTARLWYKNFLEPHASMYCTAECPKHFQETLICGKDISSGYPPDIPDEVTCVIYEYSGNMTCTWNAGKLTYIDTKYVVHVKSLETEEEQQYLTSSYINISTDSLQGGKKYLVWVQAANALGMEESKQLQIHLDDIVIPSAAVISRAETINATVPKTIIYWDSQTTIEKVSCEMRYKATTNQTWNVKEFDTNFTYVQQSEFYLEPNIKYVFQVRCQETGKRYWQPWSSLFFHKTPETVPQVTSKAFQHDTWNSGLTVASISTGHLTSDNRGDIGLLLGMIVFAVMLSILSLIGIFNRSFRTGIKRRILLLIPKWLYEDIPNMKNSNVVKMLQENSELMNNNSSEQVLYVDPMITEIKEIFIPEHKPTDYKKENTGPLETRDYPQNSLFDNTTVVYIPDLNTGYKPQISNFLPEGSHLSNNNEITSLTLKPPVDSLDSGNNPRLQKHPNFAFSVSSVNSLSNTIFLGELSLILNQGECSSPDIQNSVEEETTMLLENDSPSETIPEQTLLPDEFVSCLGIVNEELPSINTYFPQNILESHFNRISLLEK
Put plainly: IL23R Reporter Assay. The assay is classed as cell-based. Conditions: HEK293 cells containing IL-23R, IL-12Rβ1 and STAT-inducible firefly luciferase reporter; 10 ng/mL IL-23 (EC90); 5 h at 37° C.; read-out: IC50. The text has this: IL-23 binding to IL-23 receptors results in the activation of the Signal Transducer and Activator of Transcription 3 (STAT3) by phosphorylation and downstream signaling events. Accordingly. the ability of the inhibitors described herein to block IL-23 action can be assessed by monitoring the status of STAT3 activation in response to IL-23. This may be accomplished in reporter cell assays or in intact cells such as peripheral blood mononuclear cells (PBMCs).
Compounds were serially diluted in 100% (v/v) DMSO) and plated using an Echo acoustic dispenser (Labcyte) into 1536-well non-treated black assay plates (Corning #9146). 3 µL of HEK293 cells containing IL-23R, IL-12RP31 and a firefly luciferase reporter gene driven by a STAT-inducible promoter (Promega) were added to the plates (4000 cells/well), followed by 3 μL of 10 ng/mL IL-23 (equivalent to EC90 concentration). After 5 h at 37° C., 5% CO2, 95% relative humidity, cells were placed at 20° C. and treated with BioGlo reagent (Promega) according to the Manufacturer's instructions. Luminescence was measured on a Pherastar FSX (BMG LabTech). The data, provided in Tables 5a and 5b, were normalized to IL-23 treatment (0% inhibition) and 30 μM of control inhibitor (100% inhibition), and IC50 values were determined using a 4-parameter Hill equation.
Background: Reporter assays use an easily measured gene product as a stand-in for the process of interest.

As for `CC(=O)NCCCC[C@@H]1NC(=O)[C@H](Cc2c[nH]c3c(C)cccc23)NC(=O)[C@H]([C@@H](C)O)NC(=O)[C@H](CC(N)=O)NC(=O)[C@@H](NC(C)=O)C(C)(C)SSC(C)(C)[C@@H](C(=O)N[C@@H](Cc2ccc(OCCN)cc2)C(=O)N[C@@H](Cc2ccc3ccccc3c2)C(=O)NC2(C(=O)N[C@@H](CCCCNC(=O)COCCOCCNC(=O)CCOCCOCCOCCOCCOCCOCCNC(=O)CC[C@H](NC(=O)CCCCCCCCCCCCCCC(=O)O)C(=O)O)C(=O)N[C@@H](CC(N)=O)C(=O)N[C@@H](Cc3cccnc3)C(=O)N(C)CC(N)=O)CCOCC2)NC1=O` [Example 38, MeCO-Pen*-N-T-7MeW-K(Ac)-Pen*-AEF-2Nal-THP-K(PEG2PEG6gEC16OH)-N-3Pya-Sar-CONH2], the IC50 (as a rule, the concentration needed to halve the response being measured) came out at 0.021 nM.

For the compound `CC(=O)NCCCC[C@@H]1NC(=O)[C@H](Cc2c[nH]c3c(C)cccc23)NC(=O)[C@H]([C@@H](C)O)NC(=O)[C@H](CC(N)=O)NC(=O)[C@@H](NC(C)=O)C(C)(C)SSC(C)(C)[C@@H](C(=O)N[C@@H](Cc2ccc(OCCN)cc2)C(=O)N[C@@H](Cc2ccc3ccccc3c2)C(=O)NC2(C(=O)N[C@@H](CCCCNC(=O)COCCOCCNC(=O)COCCOCCNC(=O)CCCCCCCCCCCCCCC(=O)O)C(=O)N[C@@H](CC(N)=O)C(=O)N[C@@H](Cc3cccnc3)C(=O)N(C)CC(N)=O)CCOCC2)NC1=O` [Example 40, MeCO-Pen*-N-T-7MeW-K(Ac)-Pen*-AEF-2Nal-THP-K(PEG2PEG2C16OH)-N-3Pya-Sar-CONH2], the half-inhibitory concentration (IC50) stood at 0.023 nM.

For the compound `CC(=O)NCCCC[C@@H]1NC(=O)[C@H](Cc2c[nH]c3c(C)cccc23)NC(=O)[C@H]([C@@H](C)O)NC(=O)[C@H](CCCCNC(=O)CC[C@H](NC(=O)CCCCCCCCCCCCCCCCC(=O)O)C(=O)O)NC(=O)[C@@H](NC(=O)[C@@H](CCCNC(=N)N)NC(C)=O)C(C)(C)SSC(C)(C)[C@@H](C(=O)N[C@@H](Cc2ccc(OCCN)cc2)C(=O)N[C@@H](Cc2ccc3ccccc3c2)C(=O)NC2(C(=O)N[C@@H](CCCCNC(C)=O)C(=O)N[C@@H](CC(N)=O)C(=O)N[C@@H](Cc3cccnc3)C(=O)N(C)CC(N)=O)CCOCC2)NC1=O` [Example 51, MeCO-r-Pen*-K(gEC18OH)-T-7MeW-K(Ac)-Pen*-AEF-2Nal-THP-K(Ac)-N-3Pya-Sar-CONH2], the IC50 worked out at 0.18 nM.

As for `CC(=O)NCCCC[C@@H]1NC(=O)[C@H](Cc2c[nH]c3c(C)cccc23)NC(=O)[C@H]([C@@H](C)O)NC(=O)[C@H](CC(N)=O)NC(=O)[C@@H](NC(=O)[C@@H](CCCNC(=N)N)NC(C)=O)C(C)(C)SSC(C)(C)[C@@H](C(=O)N[C@@H](Cc2ccc(OCCN)cc2)C(=O)N[C@@H](Cc2ccc3ccccc3c2)C(=O)NC2(C(=O)N[C@@H](CCCCNC(=O)COCCOCCNC(=O)COCCOCCNC(=O)[C@@H]3CCCN3C(=O)CCCCCCCCCCCCCCCCC(=O)O)C(=O)N[C@@H](CC(N)=O)C(=O)N[C@@H](Cc3cccnc3)C(=O)N(C)CC(N)=O)CCOCC2)NC1=O` [Example 56, MeCO-r-Pen*-N-T-7MeW-K(Ac)-Pen*-AEF-2Nal-THP-K(PEG2PEG2PC18OH)-N-3Pya-Sar-CONH2], the 50% inhibitory concentration (IC50) turned out to be 0.17 nM.

For `CC(=O)NCCCC[C@@H]1NC(=O)[C@H](Cc2c[nH]c3c(C)cccc23)NC(=O)[C@H]([C@@H](C)O)NC(=O)[C@H](CC(N)=O)NC(=O)[C@@H](NC(=O)[C@@H](CCCCNC(=O)COCCOCCNC(=O)CCOCCOCCOCCOCCOCCOCCNC(=O)CC[C@H](NC(=O)CCCCCCCCCCCCCCCCC(=O)O)C(=O)O)NC(C)=O)C(C)(C)SSC(C)(C)[C@@H](C(=O)N[C@@H](Cc2ccc(OCCN)cc2)C(=O)N[C@@H](Cc2ccc3ccccc3c2)C(=O)NC2(C(=O)N[C@@H](CCCCNC(C)=O)C(=O)N[C@@H](CC(N)=O)C(=O)N[C@@H](Cc3cccnc3)C(=O)N(C)CC(N)=O)CCOCC2)NC1=O` [Example 61, MeCO-k(PEG2PEG6 gE C18OH)-Pen*-N-T-7MeW-K(Ac)-Pen*-AEF-2Nal-THP-K(Ac)-N-3Pya-Sar-CONH2], the IC50 was determined as 0.044 nM.

`CC(=O)NCCCC[C@@H]1NC(=O)[C@H](Cc2c[nH]c3c(C)cccc23)NC(=O)[C@H]([C@@H](C)O)NC(=O)[C@H](CCCCNC(=O)COCCOCCNC(=O)CCOCCOCCOCCOCCOCCOCCNC(=O)CC[C@H](NC(=O)CCCCCCCCCCCCCCCCC(=O)O)C(=O)O)NC(=O)[C@@H](NC(=O)[C@@H](CCCNC(=N)N)NC(C)=O)C(C)(C)SSC(C)(C)[C@@H](C(=O)N[C@@H](Cc2ccc(OCCN)cc2)C(=O)N[C@@H](Cc2ccc3ccccc3c2)C(=O)NC2(C(=O)N[C@@H](CCCCNC(C)=O)C(=O)N[C@@H](CC(N)=O)C(=O)N[C@@H](Cc3cccnc3)C(=O)N(C)CC(N)=O)CCOCC2)NC1=O` [Example 64, MeCO-r-Pen*-K(PEG2PEG6 gE C18OH)-T-7MeW-K(Ac)-Pen*-AEF-2Nal-THP-K(Ac)-N-3Pya-Sar-CONH2]: the concentration for half-maximal inhibition (IC50) was found to be 0.055 nM.

For the compound `CC(=O)NCCCC[C@@H]1NC(=O)[C@H](Cc2c[nH]c3c(C)cccc23)NC(=O)[C@H]([C@@H](C)O)NC(=O)[C@H](CC(N)=O)NC(=O)[C@@H](NC(=O)[C@@H](CCCNC(=N)N)NC(C)=O)C(C)(C)SSC(C)(C)[C@@H](C(=O)N[C@@H](Cc2ccc(OCCN)cc2)C(=O)N[C@@H](Cc2ccc3ccccc3c2)C(=O)NC2(C(=O)N[C@@H](CCCCNC(=O)COCCOCCNC(=O)COCCOCCNC(=O)[C@H]3CCCN3C(=O)[C@H]3CCCN3C(=O)[C@H]3CCCN3C(=O)CCCCCCCCCCCCCCCCC(=O)O)C(=O)N[C@@H](CC(N)=O)C(=O)N[C@@H](Cc3cccnc3)C(=O)N(C)CC(N)=O)CCOCC2)NC1=O` [Example 66, MeCO-r-Pen*-N-T-7MeW-K(Ac)-Pen*-AEF-2Nal-THP-K(PEG2PEG2pppC18OH)-N-3Pya-Sar-CONH2], the half-maximal inhibitory concentration (IC50) was found to be 0.18 nM.

For `CCCCCCCCCCCCCCCC(=O)N[C@@H](CCC(=O)NCCCC[C@@H](NC(C)=O)C(=O)N[C@@H]1C(=O)N[C@@H](CC(N)=O)C(=O)N[C@@H]([C@@H](C)O)C(=O)N[C@@H](Cc2c[nH]c3c(C)cccc23)C(=O)N[C@@H](CCCCNC(C)=O)C(=O)N[C@H](C(=O)N[C@@H](Cc2ccc(OCCN)cc2)C(=O)N[C@@H](Cc2ccc3ccccc3c2)C(=O)NC2(C(=O)N[C@@H](CCCCNC(C)=O)C(=O)N[C@@H](CC(N)=O)C(=O)N[C@@H](Cc3cccnc3)C(=O)N(C)CC(N)=O)CCOCC2)C(C)(C)SSC1(C)C)C(=O)O` [Example 67, MeCO-k(gEC16)-Pen*-N-T-7MeW-K(Ac)-Pen*-AEF-2Nal-THP-K(Ac)-N-3Pya-Sar-CONH2], the IC50 was 0.035 nM.

For `CCCCCCCCCCCCCCCCCC(=O)N[C@@H](CCC(=O)NCCCC[C@@H]1NC(=O)[C@@H](NC(=O)[C@@H](CCCNC(=N)N)NC(C)=O)C(C)(C)SSC(C)(C)[C@@H](C(=O)N[C@@H](Cc2ccc(OCCN)cc2)C(=O)N[C@@H](Cc2ccc3ccccc3c2)C(=O)NC2(C(=O)N[C@@H](CCCCNC(C)=O)C(=O)N[C@@H](CC(N)=O)C(=O)N[C@@H](Cc3cccnc3)C(=O)N(C)CC(N)=O)CCOCC2)NC(=O)[C@H](CCCCNC(C)=O)NC(=O)[C@H](Cc2c[nH]c3c(C)cccc23)NC(=O)[C@H]([C@@H](C)O)NC1=O)C(=O)O` [Example 70, MeCO-r-Pen*-K(gEC18)-T-7MeW-K(Ac)-Pen*-AEF-2Nal-THP-K(Ac)-N-3Pya-Sar-CONH2], the half-inhibitory concentration (IC50) came to 0.23 nM.

In the case of `CC(=O)NCCCC[C@@H]1NC(=O)[C@H](Cc2c[nH]c3c(C)cccc23)NC(=O)[C@H]([C@@H](C)O)NC(=O)[C@H](CCCCNC(=O)COCCOCCNC(=O)COCCOCCNC(=O)CC[C@H](NC(=O)[C@H]2CC[C@H](CNC(=O)CCCCCCCCCCCCCCCCC(=O)O)CC2)C(=O)O)NC(=O)[C@@H](NC(C)=O)C(C)(C)SSC(C)(C)[C@@H](C(=O)N[C@@H](Cc2ccc(OCCN)cc2)C(=O)N[C@@H](Cc2ccc3ccccc3c2)C(=O)NC2(C(=O)N[C@@H](CCCCNC(C)=O)C(=O)N[C@@H](CC(N)=O)C(=O)N[C@@H](Cc3cccnc3)C(=O)N(C)CC(N)=O)CCOCC2)NC1=O` [Example 73, MeCO-Pen*-K(PEG2PEG2gETrxC18OH)-T-7MeW-K(Ac)-Pen*-AEF-2Nal-THP-K(Ac)-N-3Pya-Sar-CONH2], the 50% inhibitory concentration (IC50) stood at 0.094 nM.
